Target: mGluR4 (Homo sapiens, UniProt Q14833)
Test: mGluR4 Binding Assay
Design: expressed in transfected cells; host or cells: CHO cells
Settings: membranes from CHO cells expressing human mGluR4; 20 uM L-AP4; 7 nM radiotracer [3H]-N-(4-{[(2-Chlorophenyl)amino]sulfonyl}phenyl)pyridine-2-carboxamide

The chains behind the UniProt entries cited, without tags or fusion partners. Residues count along the entry.
UniProt Q14833, 33-912: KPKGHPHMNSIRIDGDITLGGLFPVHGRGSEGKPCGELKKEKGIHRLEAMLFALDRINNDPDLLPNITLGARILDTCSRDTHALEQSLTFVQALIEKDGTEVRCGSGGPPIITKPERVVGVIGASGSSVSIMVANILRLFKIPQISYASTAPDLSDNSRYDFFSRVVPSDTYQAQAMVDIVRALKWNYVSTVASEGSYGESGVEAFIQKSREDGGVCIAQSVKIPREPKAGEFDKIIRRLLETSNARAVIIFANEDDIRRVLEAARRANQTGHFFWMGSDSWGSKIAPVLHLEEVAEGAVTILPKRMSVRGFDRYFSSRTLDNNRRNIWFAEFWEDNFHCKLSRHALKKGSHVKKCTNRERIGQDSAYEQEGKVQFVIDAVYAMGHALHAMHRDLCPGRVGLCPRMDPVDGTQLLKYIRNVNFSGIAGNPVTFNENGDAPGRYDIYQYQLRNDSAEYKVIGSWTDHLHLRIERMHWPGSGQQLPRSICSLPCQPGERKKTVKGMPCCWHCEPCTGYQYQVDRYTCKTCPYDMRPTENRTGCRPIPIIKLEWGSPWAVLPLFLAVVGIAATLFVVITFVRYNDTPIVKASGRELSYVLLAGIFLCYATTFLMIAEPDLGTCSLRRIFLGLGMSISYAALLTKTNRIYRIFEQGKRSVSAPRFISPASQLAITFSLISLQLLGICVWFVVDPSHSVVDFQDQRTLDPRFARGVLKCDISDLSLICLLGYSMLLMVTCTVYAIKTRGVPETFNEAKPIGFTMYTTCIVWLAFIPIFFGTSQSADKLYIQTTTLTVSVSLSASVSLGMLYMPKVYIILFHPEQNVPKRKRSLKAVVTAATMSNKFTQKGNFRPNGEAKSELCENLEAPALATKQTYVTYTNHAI

O=C(Nc1ccc(N2C(=O)c3cccc(F)c3C2=O)c(Cl)c1)c1ccccn1 [Example 10, N-[3-chloro-4-(4-fluoro-1,3-dioxo-1,3-dihydro-2H-isoindol-2-yl)phenyl]pyridine-2-carboxamide]
IC50: 36 nM

Reference: patent publication US20110318266A1, “PHTHALIMIDE DERIVATIVE METABOTROPIC GLUTAMATE R4 LIGANDS” (priority 2008, published 2011)
